Reference: PubChem BioAssay AID602314 (ICCB-Longwood Screening Facility, Harvard Medical School, 2012)
This is a selection; strong and weak results do not stand in their true shares. Some tests of the compounds listed are not included; inactive here does not mean inactive elsewhere. Calls of active or inactive are those of the source. Cut-off read from the data, not from the text of the source: active = inhibition above about 30% (passing the limit was not always enough); inactive = the rest.

System: MgrA (MarR family transcriptional regulator), Staphylococcus aureus Newman
Test: S. aureus MgrA activity modulators, primary screen, biochemical, S. aureus Newman, fluorescence polarization (AID 602314);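 note: 0% = protein plus DNA without compound and 100% = DNA alone without protein; higher means less MgrA bound to DNA so lower polarization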
Conditions: MgrA-DNA binding, hits give high values, concentration not given here

Q: For `O=C(OC1CN2CCC1CC2)C(CO)(c1ccccc1)c1ccccc1` (configuration not stated), which inhibition is on record?
A: inactive: -3.55%

Q: Which inhibition does the source give for `CN1C2CCC1CC(OC(=O)C(O)(c1ccccc1)c1ccccc1)C2` (configuration not stated) here?
A: inactive: -0.55%
